Laboratory results published in patent US20100209345A1, “Fluorinated Ligands for Targeting Peripheral Benzodiazepine Receptors” (Australian Nuclear Science & Technology Organisation, priority 2006, published 2010).

How the values were obtained:
[1] = molecular target: central benzodiazepine receptors; test: In vitro binding, [3H]-Flumazenil, brain cortex membrane preparation; settings: read-out: CBR IC50, [3H]-Flumazenil (2 nM), 25° C., 45 min
[2] = Biodistribution of 18F-labelled tracers in rats; assay type: in vivo; settings: corrected for decay of 18F

CN(C(=O)Cc1c(-c2ccc(OCCC[18F])cc2)nc2c(Cl)cc(Cl)cn12)c1ccccc1 [PBR147*, 2-(2-(4-(3-fluoropropoxy)phenyl)-6,8-dichloroimidazo[1,2-a]pyridin-3-yl)-N-methyl-N-phenylacetamide]
IC50 [1]: > 4 µM | Biodistribution: Adrenals ([2]; 15 min): 7.59 ± 1.30 % ID/g | Biodistribution: Bladder ([2]; 15 min): 0.61 ± 0.15 % ID/g | Biodistribution: Blood ([2]; 15 min): 0.63 ± 0.08 % ID/g | Biodistribution: Bone ([2]; 15 min): 0.94 ± 0.05 % ID/g | Biodistribution: Brain ([2]; 15 min): 0.43 ± 0.05 % ID/g | Biodistribution: GIT ([2]; 15 min): 0.98 ± 0.15 % ID/g | Biodistribution: Heart ([2]; 15 min): 6.53 ± 0.38 % ID/g | Biodistribution: Kidney ([2]; 15 min): 4.75 ± 0.75 % ID/g | Biodistribution: Liver ([2]; 15 min): 1.88 ± 0.16 % ID/g | Biodistribution: Lungs ([2]; 15 min): 26.34 ± 3.04 % ID/g | Biodistribution: Muscle ([2]; 15 min): 0.78 ± 0.09 % ID/g | Biodistribution: Olfactory bulbs ([2]; 15 min): 0.58 ± 0.09 % ID/g | Biodistribution: Pancreas ([2]; 15 min): 2.12 ± 0.16 % ID/g | Biodistribution: Skin ([2]; 15 min): 0.45 ± 0.03 % ID/g | Biodistribution: Spleen ([2]; 15 min): 8.07 ± 1.11 % ID/g | Biodistribution: Stomach ([2]; 15 min): 0.41 ± 0.12 % ID/g | Biodistribution: Testes ([2]; 15 min): 0.23 ± 0.02 % ID/g | Biodistribution: Thymus ([2]; 15 min): 0.76 ± 0.12 % ID/g | Biodistribution: Thyroid ([2]; 15 min): 7.23 ± 1.35 % ID/g | Biodistribution: Adrenals ([2]; 30 min): 8.47 ± 1.46 % ID/g | Biodistribution: Bladder ([2]; 30 min): 0.58 ± 0.05 % ID/g | Biodistribution: Blood ([2]; 30 min): 0.34 ± 0.06 % ID/g | Biodistribution: Bone ([2]; 30 min): 1.18 ± 0.08 % ID/g | Biodistribution: Brain ([2]; 30 min): 0.26 ± 0.04 % ID/g | Biodistribution: GIT ([2]; 30 min): 1.14 ± 0.04 % ID/g | Biodistribution: Heart ([2]; 30 min): 5.69 ± 0.42 % ID/g | Biodistribution: Kidney ([2]; 30 min): 3.82 ± 0.45 % ID/g | Biodistribution: Liver ([2]; 30 min): 1.37 ± 0.38 % ID/g | Biodistribution: Lungs ([2]; 30 min): 18.00 ± 2.29 % ID/g | Biodistribution: Muscle ([2]; 30 min): 0.64 ± 0.19 % ID/g | Biodistribution: Olfactory bulbs ([2]; 30 min): 0.48 ± 0.09 % ID/g | Biodistribution: Pancreas ([2]; 30 min): 1.88 ± 0.24 % ID/g | Biodistribution: Skin ([2]; 30 min): 0.51 ± 0.06 % ID/g | Biodistribution: Spleen ([2]; 30 min): 7.25 ± 1.13 % ID/g | Biodistribution: Stomach ([2]; 30 min): 0.40 ± 0.06 % ID/g | Biodistribution: Testes ([2]; 30 min): 0.21 ± 0.02 % ID/g | Biodistribution: Thymus ([2]; 30 min): 0.63 ± 0.11 % ID/g | Biodistribution: Thyroid ([2]; 30 min): 7.43 ± 1.00 % ID/g | Biodistribution: Adrenals ([2]; 60 min): 8.45 ± 0.84 % ID/g | Biodistribution: Bladder ([2]; 60 min): 0.58 ± 0.12 % ID/g | Biodistribution: Blood ([2]; 60 min): 0.23 ± 0.03 % ID/g | Biodistribution: Bone ([2]; 60 min): 1.49 ± 0.16 % ID/g | Biodistribution: Brain ([2]; 60 min): 0.16 ± 0.01 % ID/g | Biodistribution: GIT ([2]; 60 min): 1.44 ± 0.29 % ID/g | Biodistribution: Heart ([2]; 60 min): 5.82 ± 0.24 % ID/g | Biodistribution: Kidney ([2]; 60 min): 3.68 ± 0.28 % ID/g | Biodistribution: Liver ([2]; 60 min): 1.08 ± 0.14 % ID/g | Biodistribution: Lungs ([2]; 60 min): 11.36 ± 0.97 % ID/g | Biodistribution: Muscle ([2]; 60 min): 0.55 ± 0.11 % ID/g | Biodistribution: Olfactory bulbs ([2]; 60 min): 0.27 ± 0.03 % ID/g | Biodistribution: Pancreas ([2]; 60 min): 1.66 ± 0.13 % ID/g | Biodistribution: Skin ([2]; 60 min): 0.49 ± 0.06 % ID/g | Biodistribution: Spleen ([2]; 60 min): 6.98 ± 0.29 % ID/g | Biodistribution: Stomach ([2]; 60 min): 0.64 ± 0.27 % ID/g | Biodistribution: Testes ([2]; 60 min): 0.22 ± 0.01 % ID/g | Biodistribution: Thymus ([2]; 60 min): 0.69 ± 0.08 % ID/g | Biodistribution: Thyroid ([2]; 60 min): 8.17 ± 1.71 % ID/g | Biodistribution: Adrenals ([2]; 4 hours): 9.30 ± 0.55 % ID/g | Biodistribution: Bladder ([2]; 4 hours): 0.80 ± 0.05 % ID/g | Biodistribution: Blood ([2]; 4 hours): 0.13 ± 0.01 % ID/g | Biodistribution: Bone ([2]; 4 hours): 2.56 ± 0.03 % ID/g | Biodistribution: Brain ([2]; 4 hours): 0.09 ± 0.01 % ID/g | Biodistribution: GIT ([2]; 4 hours): 2.71 ± 0.10 % ID/g | Biodistribution: Heart ([2]; 4 hours): 6.09 ± 0.54 % ID/g | Biodistribution: Kidney ([2]; 4 hours): 3.26 ± 0.16 % ID/g | Biodistribution: Liver ([2]; 4 hours): 0.57 ± 0.02 % ID/g | Biodistribution: Lungs ([2]; 4 hours): 5.62 ± 0.24 % ID/g | Biodistribution: Muscle ([2]; 4 hours): 0.44 ± 0.04 % ID/g | Biodistribution: Olfactory bulbs ([2]; 4 hours): 0.24 ± 0.09 % ID/g | Biodistribution: Pancreas ([2]; 4 hours): 0.95 ± 0.14 % ID/g | Biodistribution: Skin ([2]; 4 hours): 0.57 ± 0.04 % ID/g | Biodistribution: Spleen ([2]; 4 hours): 4.79 ± 0.31 % ID/g | Biodistribution: Stomach ([2]; 4 hours): 0.83 ± 0.17 % ID/g | Biodistribution: Testes ([2]; 4 hours): 0.28 ± 0.02 % ID/g | Biodistribution: Thymus ([2]; 4 hours): 0.81 ± 0.08 % ID/g | Biodistribution: Thyroid ([2]; 4 hours): 6.44 ± 0.45 % ID/g
